Results from PubChem BioAssay AID588497 (NMMLSC, 2011).
The entries are a selection whose mix differs from that of the whole data set. Some results for these compounds are left out of this collection, so the calls shown say nothing about other tests. Inconclusive results are not listed. The source made the active and inactive calls. No stated cut-off is given here; in the data, active means inhibition above about 35% (passing the limit was not always enough); inconclusive means no clear call, values can overlap the other calls.

System: Botulinum neurotoxin type F light chain protease (Clostridium botulinum)
Test: BoNT/F light chain protease inhibitors, primary screen, biochemical, flow cytometry, MLPCN library (AID 588497); further: plate controls were buffer without enzyme for full effect and enzyme alone for no effect
Settings: Multiplex microsphere protease cleavage assay, at 10 µM, active compounds read high

Row | Structure (SMILES) | inhibition
1 | O=C(OC1CN2CCC1CC2)C(CO)(c1ccccc1)c1ccccc1 (centres undefined) | inactive: 1.5%
2 | CC(C)Oc1ccc(C(=O)NCC2(N(C)C)CCCCC2)cc1 | inactive: -13.3%
3 | O=C(OCCN1CCCC1)C(O)(c1ccccc1)c1ccccc1 | inactive: 3.9%
4 | CN(C)c1cccc(C(=O)NCC2(N(C)C)CCCCC2)c1 | inactive: 0.7%
5 | C=C(C)C#CC(O)(C(=O)OC1CCN(C)CC1)c1ccccc1 (centres undefined) | inactive: 3.9%
6 | COc1ccc(Br)c(C(=O)NCC2(N3CCCCC3)CCCCC2)c1 | inactive: 8.5%
7 | COc1cc(C(=O)NCC2(N(C)C)CCCCC2)c([N+](=O)[O-])cc1OC | inactive: -19%
8 | CN(C)C1(CNC(=O)c2ccc(Br)cc2)CCCCC1 | inactive: 25%
9 | O=C(NCC1(N2CCCCC2)CCCCC1)c1cccc(Cl)c1 | inactive: 21.7%
10 | COc1cccc(C(=O)NCC2(N3CCCCC3)CCCCC2)c1 | inactive: 0.9%
11 | COc1ccc(Cl)cc1C(=O)NCC1(N(C)C)CCCCC1 | inactive: -15.2%
12 | Cc1ccccc1C(=O)NCC1(N2CCCCC2)CCCCC1 | inactive: -0.1%
13 | CN(C)C1CCCC1OC(=O)C(O)(c1ccccc1)c1ccccc1 (centres undefined) | inactive: -7.4%
14 | COc1ccc(C(=O)NCC2(N(C)C)CCCCC2)cc1 | inactive: 8%
15 | Cc1cc(C(=O)NCC2(N3CCCCC3)CCCCC2)ccc1[N+](=O)[O-] | inactive: -17.5%
16 | CCN1CCCC(OC(=O)C2(O)c3ccccc3C=Cc3ccccc32)C1 (centres undefined) | inactive: -1.9%
17 | O=C(NCC1(N2CCCCC2)CCCCC1)c1cccc(Br)c1 | inactive: 2.6%
18 | C=CCN1CCN(CCOC(=O)C(O)(c2ccccc2)c2ccccc2)CC1 | inactive: -0.5%
19 | O=C(NCC1(N2CCCCC2)CCCCC1)c1cc(F)c(F)cc1Cl | inactive: 0.3%
20 | CN1[C@@H]2CC[C@H]1CC(OC(=O)C(O)(c1ccccc1)c1ccccc1)C2 (some centres undefined) | active: 35%
21 | O=C(NCC1(N2CCCCC2)CCCCC1)c1cc([N+](=O)[O-])ccc1Cl | inactive: -6.8%
22 | Cc1ccc(C(=O)NCC2(N3CCCCC3)CCCCC2)cc1 | inactive: 4%
23 | CCN(CC)CC(C)C(C)OC(=O)C(O)(c1ccccc1)c1ccccc1 (centres undefined) | inactive: -1.8%
24 | COc1cc(SC)ccc1C(=O)NCC1(N(C)C)CCCCC1 | inactive: 9.1%
